# From patent publication US20120052061A1, “THERAPIES FOR TREATING CANCER USING COMBINATIONS OF COX-2 INHIBITORS AND ANTI-HER2(ERBB2) ANTIBODIES OR COMBINATIONS OF COX-2 INHIBITORS AND HER2(ERBB2) RECEPTOR TYROSINE KINASE INHIBITORS” (Tragara Pharmaceuticals Inc., priority 2007, published 2012)
# How the values were obtained:
# [1] = system: HER2-positive breast cancer cell lines (BT474 and SKBR3), trastuzumab resistant; conditions: following trastuzumab exposure, cited from earlier work
# BT474 tumor = assay: BT474 model, dose response study of combinations (Example 10); type: in vivo; conditions: Group 2: trastuzumab 15 mg/kg, ip, biwk×3
# [2] = system: HER2-positive breast cancer cell lines (BT474 and SKBR3), sensitive; conditions: following trastuzumab exposure, sensitive cells; cited from earlier work
substance,measurement,setting,value
trastuzumab: recombinant DNA-derived humanized monoclonal antibody (IgG1 kappa) that binds the extracellular domain of HER2,G0/G1 arrest,[1]; resistant cells,68%
same,cells in S-phase,[1],14%
same,Difference from control,BT474 tumor,36.6
same,Median Total Time to Endpoint,BT474 tumor,64.8 days
same,Regressions: PR (partial regressions),BT474 tumor,0
same,Regressions: TFS (tumor free survivors),BT474 tumor,0
same,G0/G1 arrest,[2],84%
